Source: patent CN102875676A

Amino acid sequences for entries named in this document (tags omitted). Chains listed by the source or under a name are the forms on record and can include a tag or linker.
UniProt P15692, other isoform, or with tags, fused parts or gaps limits assumed: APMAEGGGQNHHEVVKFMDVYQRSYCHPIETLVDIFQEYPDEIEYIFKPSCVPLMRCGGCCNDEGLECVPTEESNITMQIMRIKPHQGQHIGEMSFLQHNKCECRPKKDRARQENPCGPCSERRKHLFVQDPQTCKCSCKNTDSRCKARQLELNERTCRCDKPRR

Experiments:
[1] = target: 重组人VEGF (recombinant human VEGF, VEGF-A) (human) (UniProt P15692); assay: Friguet method, full-length antibody
[2] = target: 重组人VEGF (recombinant human VEGF, VEGF-A) (human) (UniProt P15692); assay: Friguet method (solution equilibrium with human VEGF, ELISA of free antibody on immobilised VEGF), Fab
[3] = target: 重组人VEGF (recombinant human VEGF, VEGF-A) (human) (UniProt P15692); assay: cell-based or functional assay

Row | Kd [1] | Kd [2] | ED50, inhibition of VEGF-induced growth of bovine adrenal cortex capillary endothelial cells (MTT) [3] | Substance
1 | 1.51 nM |  |  | Avastin (自备), full-length form of Fab-12 (antibody)
2 |  | 1.35 nM | 0.179 µg/mL | Fab-12 (自备)
